According to PubChem BioAssay AID1347070 (National Center for Advancing Translational Sciences (NCATS), 2019):
The entries are a selection whose mix differs from that of the whole data set. Active and inactive are the calls of the source. Calls come from the whole dose curve; as a rule, active = well fitted activation curve with a large enough effect; inconclusive = small, poorly fitted or top-dose-only effect; inactive = flat fitted curve, though single readings scatter.

Test: qHTS of alpha-syn Inhibitors: NCGC Sytravon Library Screen; note: 0% is about no effect
Conditions: S. cerevisiae alpha-synuclein toxicity rescue, BacTiter-Glo growth, 24 h; at 46.1 µM (top of the series)
Source text: The goal of this project is to identify new chemical probes capable of reversing the toxicity associated with the Parkinson disease-related protein, alpha-synuclein. Compounds will be selected on their ability to restore growth in yeast cells expressing toxic levels of alpha-synuclein. These compounds will provide a complementary approach to deciphering the tangled mechanisms of toxicity and protection that we have uncovered through genome-wide genetic screens and are beginning to uncover in a large-scale proteomics analysis with mass spectroscopy. To this end, a miniaturized assay was developed to be screened against the Molecular Libraries Small Molecule Repository (MLSMR) to discover alpha-synuclein inhibitors. […] The phenotype of interest will be that of an Activator and this screen is run against the NCGC Sytravon Library collection. NIH Chemical Genomics Center [NCGC] NIH Molecular Libraries Probe Centers Network [MLPCN] MLPCN Grant: NS060957 Assay Submitter (PI): Susan Lindquist, Whitehead Institute/MIT
Dispense 2.5 microL yeast galactose medium per 1536-well plate, pin compound, dispense 2.5 microL alpha-synuclein expressing yeast in galactose medium at OD600=0.02 (pregrown in raffinose medium to mid-log phase) per well, incubate for 24 hr at 30 deg C, and cell growth will be measured using 5 microL of Bactiter/Glo reagent to entire plate and read using Luminescence Protocol in ViewLux.

Row | SMILES | growth rescue (activation)
1 | CP(=O)(Nc1ccccc1Br)Oc1ccccc1 (stereo unspecified) | inactive: -2.81%
2 | COc1ccccc1OP(C)(=O)Nc1cc(Cl)ccc1C (stereo unspecified) | inactive: -50.5%
3 | Cc1cc(C)cc(OP(C)(N)=O)c1 (stereo unspecified) | inactive: -18.4%
4 | Cc1ccc(NP(C)(=O)Oc2ccccc2)c(C)c1 (stereo unspecified) | inactive: 9.17%
5 | CP(=O)(Nc1ccc(SC(F)(F)F)cc1)Oc1ccccc1 (stereo unspecified) | inactive: 8.65%
6 | CCCOc1ccc(NP(C)(=O)Oc2ccc(Cl)cc2)cc1 (stereo unspecified) | inactive: 13.4%
7 | Cc1cc(-c2cccc3ccccc23)c(C)cn1.O=[N+]([O-])c1cc([N+](=O)[O-])c(O)c([N+](=O)[O-])c1 | inactive: -9.16%
8 | O=[N+]([O-])c1ccc(OP2(=O)COCCO2)cc1 (stereo unspecified) | inactive: -4.96%
9 | COc1ccc(NP(C)(=O)Oc2ccccc2OC)cc1 (stereo unspecified) | inactive: -1.24%
10 | COc1ccc(OP(C)(=O)Nc2ccc(SC(F)(F)F)cc2)cc1 (stereo unspecified) | inactive: 1.59%
11 | COc1ccccc1OP(C)(=O)Nc1ccc(Br)cc1 (stereo unspecified) | inactive: 5.54%
